Results on two compounds are retold here after PubChem BioAssay AID795 (NMMLSC, 2007).

This is a selection; strong and weak results do not stand in their true shares. Activity calls are given as the source filed them.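 How the source made its calls: active means side scatter shift above 30%; inactive means the rest.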

The nature of this assay: inducers of granularity increase in LNCaP cells – cell-based, flow cytometry side scatter, primary screen (AID 795).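 Further: androgen-responsive LNCaP prostate cancer cells in charcoal-stripped serum medium; percent of cells past a gate set so DMSO wells show 10% shift; higher shift means more granular cells and more differentiation.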 Particulars: LNCaP differentiation, 4 d, at 10 µM, active compounds read high. (In flow cytometry, cells or beads pass a laser one at a time.)
For `N#CC1(Nc2ccccc2)CCN(CCc2ccccc2)CC1`, the side scatter shift is inactive: 5%.

`Fc1ccccc1NC1CCN(Cc2ccccc2)CC1`: the side scatter shift is inactive: 6%.
